# Source: PubChem BioAssay AID720648 (The Scripps Research Institute Molecular Screening Center, 2013)
# Amino acid sequences for entries named in this document (tags omitted). A change or cut given only in a name is not applied to a line headed by its entry.
# UniProt P78536: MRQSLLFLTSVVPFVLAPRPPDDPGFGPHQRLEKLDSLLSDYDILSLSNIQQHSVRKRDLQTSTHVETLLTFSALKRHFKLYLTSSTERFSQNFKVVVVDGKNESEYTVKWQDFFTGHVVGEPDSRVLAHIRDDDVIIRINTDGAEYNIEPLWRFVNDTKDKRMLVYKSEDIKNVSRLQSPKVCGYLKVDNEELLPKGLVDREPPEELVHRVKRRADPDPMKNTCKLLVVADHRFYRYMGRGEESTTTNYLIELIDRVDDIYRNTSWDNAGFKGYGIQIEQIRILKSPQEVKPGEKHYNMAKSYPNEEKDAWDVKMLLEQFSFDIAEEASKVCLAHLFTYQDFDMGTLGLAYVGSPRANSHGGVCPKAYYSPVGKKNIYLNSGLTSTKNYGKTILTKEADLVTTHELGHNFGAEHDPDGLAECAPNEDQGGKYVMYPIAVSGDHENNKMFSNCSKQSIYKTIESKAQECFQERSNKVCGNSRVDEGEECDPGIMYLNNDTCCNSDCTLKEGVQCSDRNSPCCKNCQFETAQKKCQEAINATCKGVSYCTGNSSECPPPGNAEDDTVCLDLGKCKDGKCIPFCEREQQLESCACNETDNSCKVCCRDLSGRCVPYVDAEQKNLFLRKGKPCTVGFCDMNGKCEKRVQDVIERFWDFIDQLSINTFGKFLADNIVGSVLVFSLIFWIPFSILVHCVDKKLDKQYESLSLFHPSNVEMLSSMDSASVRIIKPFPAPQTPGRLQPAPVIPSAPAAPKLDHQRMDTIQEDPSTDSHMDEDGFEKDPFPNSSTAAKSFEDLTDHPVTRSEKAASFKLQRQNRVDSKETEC
# This is a selection; strong and weak results do not stand in their true shares. Active and inactive are the calls of the source.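 How the source made its calls: active means inhibition above the mean of compounds lying between control limits plus 3 SD, set per campaign (cut at about 8.5% in these data); inactive means the rest.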
# Biological target: Disintegrin and metalloproteinase domain-containing protein 17 (Homo sapiens) (UniProt P78536)
# Experiment: ADAM17 inhibitors, primary screen, biochemical, QFRET (AID 720648);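 further: 0% = DMSO-only wells as the low control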
# Details: recombinant ADAM17, EDANS/DABCYL FRET peptide cleavage; at 6.95 µM; hits give high values
row,SMILES,inhibition
1,ClCCSc1nnc(-c2cccnc2)o1,inactive: -3.71%
2,CC(C)c1ccc(OP(=O)(Nc2ccccn2)Oc2ccccc2F)cc1 (centres undefined),inactive: -4.08%
3,COC(=O)C1(C)COP(=O)(N2CCCCCC2)OC1 (centres undefined),inactive: -2.87%
4,CCN(CC)C(=S)SC(NC=O)C(Cl)(Cl)Cl (centres undefined),inactive: -2.23%
5,O=C(OC1CN2CCC1CC2)c1cccc2[nH]cnc12 (centres undefined),inactive: -13.2%
6,CC(C)NC(=O)NP(=O)(Oc1ccccc1)Oc1ccccc1,inactive: -3.82%
7,C[As](=O)(O)c1cccc(C(=O)O)c1,inactive: -0.18%
8,O=[As](O)(c1ccc(O)cc1)c1ccccc1O,inactive: -3.86%
9,COc1cc(C(=O)NCC2(N3CCOCC3)CCCCC2)ccc1OCC(C)C,inactive: -4.17%
10,O=[N+]([O-])c1ccc(-c2cc([N+](=O)[O-])c(O)c([N+](=O)[O-])c2)cc1,inactive: 3.14%
11,[N-]=[N+]=NC1CCCCC1NC(=O)c1cc([N+](=O)[O-])cc([N+](=O)[O-])c1 (centres undefined),inactive: -1.97%
12,Cc1ccc(OP(=O)(Nc2ccc([N+](=O)[O-])cn2)Oc2ccc(C)cc2)cc1,inactive: -2.49%
13,Cc1ccc2nc3c(c(C)c2c1)CC(C(Cl)Cl)S3 (centres undefined),inactive: -5.95%
14,O=[N+]([O-])c1cc(Oc2ccc([N+](=O)[O-])cc2C(F)(F)F)cc([N+](=O)[O-])c1,inactive: -0.8%
15,COc1ccc(N/C(=N/P(=O)(N2CCOCC2)N2CCOCC2)N2CCOCC2)cc1,inactive: -6.35%
16,Cc1c2c(nc3ccccc13)SC(C(Cl)Cl)C2 (centres undefined),inactive: -0.72%
17,O=C(OC1CN2CCC1CC2)C12CC3CC(CC(C3)C1)C2 (centres undefined),inactive: 1.33%
18,Cc1cc(=O)[nH]c(N[N+](=O)[O-])n1,inactive: -1.31%
19,O=P1(N(CCCl)CCCl)OCCCN1CCCl (centres undefined),inactive: -3.74%
20,O=P1(N(CCCl)CCCl)Nc2ccccc2N1,inactive: -10.6%
21,COc1ccc2nc(NP(=O)(c3ccccc3)c3ccccc3)sc2c1,inactive: -1.42%
22,COc1cc(I)ccc1[As](=O)(O)O,inactive: -0.64%
23,O=C(OC1CN2CCC1CC2)c1cccc([N+](=O)[O-])c1 (centres undefined),inactive: -6.09%
24,CCOC(=O)c1ccc(NC(=O)C(C)(CCl)SC)cc1 (centres undefined),inactive: -2.98%
25,CCC(C)N(CC(C)C)C(=S)SC(NC(C)=O)C(Cl)(Cl)Cl (centres undefined),inactive: -6.73%

row,SMILES,inhibition
1,COP1(=S)c2c(C)nn(CCC#N)c2N=C(c2ccc(F)cc2)N1C (centres undefined),inactive: 0.44%
2,COC(=O)C1(C)COP(=O)(N2CCCC2)OC1 (centres undefined),inactive: 2.35%
3,O=C(O)C(=O)c1ccc(N(CCCl)CCCl)cc1,inactive: -2.3%
4,O=C(COc1ccccc1)OC1CN2CCC1CC2 (centres undefined),inactive: -2.66%
5,O=C(Nc1ccncc1[N+](=O)[O-])c1ccc([N+](=O)[O-])cc1[N+](=O)[O-],inactive: -3.97%
6,CCOC(=O)Nc1cccc([As](=O)(O)O)c1,inactive: -2.43%
7,O=P(Nc1ccccn1)(c1cccc2ccccc12)c1cccc2ccccc12,inactive: -6.23%
8,Cc1cc(SC(NC=O)C(Cl)(Cl)Cl)ncn1 (centres undefined),inactive: -3.02%
9,O=[N+]([O-])c1ccc(Nc2ccc(Oc3ccc([N+](=O)[O-])cc3[N+](=O)[O-])cc2)c([N+](=O)[O-])c1,inactive: -1.31%
10,CCOC(=O)Nc1ccc([As](=O)(O)O)c(O)c1,inactive: -2.33%
11,O=C(O)C(O)c1ccc(N(CCCl)CCCl)cc1 (centres undefined),inactive: -2.74%
12,CC1CCNP(=O)(N(CCCl)CCCl)O1 (centres undefined),inactive: 5.53%
13,COP(=O)(OC)N1CC1c1ccccc1 (centres undefined),inactive: 0.98%
14,CCCCOc1ccc(C(=O)NCC2(N3CCCCC3)CCCCC2)cc1OC,inactive: -0.01%
15,Cc1cc(SC(NC(=O)c2ccccc2)C(Cl)(Cl)Cl)nc(C(C)C)n1 (centres undefined),inactive: 0.86%
16,Cc1ccc(S(=O)(=O)N(CCCN)CCCc2c(C)nc(N)[nH]c2=O)cc1,inactive: 0.81%
17,O=P1(Nc2ncccn2)COc2ccccc2OC1,inactive: -1.66%
18,Nc1cccc([As](=O)(O)c2ccccc2)c1,inactive: 1.19%
19,O=P1(Nc2ccc(Br)cn2)COc2ccccc2OC1,inactive: -0.26%
20,NS(=O)(=O)c1cccc(NC(=O)COC(=O)C(O)(c2ccccc2)c2ccccc2)c1,inactive: 2.79%
21,Cc1ccc(OCC(=O)OC2CN3CCC2CC3)cc1 (centres undefined),inactive: -3.01%
22,O=[As](O)(c1cccs1)c1cccs1,inactive: -8.35%
23,Cc1nn(-c2ccccc2)c2c1P(=O)(N1CCOCC1)N(C)C(c1ccccc1)=N2 (centres undefined),inactive: -1.54%
24,CC1CCC(C(C)C)C(OP(=O)(Nc2ccccn2)c2ccccc2)C1 (centres undefined),inactive: 1.17%
25,Cc1ccc(C(=O)OC2CN3CCC2CC3)cc1 (centres undefined),inactive: -0.78%

row,SMILES,inhibition
1,CN(C)C1(CNC(=O)c2ccc(S(C)(=O)=O)cc2)CCCCC1,inactive: -5.5%
2,O=C(/C=C/c1ccccc1)OC1CN2CCC1CC2 (centres undefined),inactive: 0.92%
3,CCCC1OP(=O)(Nc2ccccc2)OCC1CC (centres undefined),inactive: -2.24%
4,COc1ccccc1CNC(=O)COC(=O)C(O)(c1ccccc1)c1ccccc1,inactive: 0.81%
5,CC(C)/C=N\N=C(\N)N[N+](=O)[O-],inactive: -2.38%
6,CN(C(=O)Cc1ccc(Cl)c(Cl)c1)[C@@H]1CCCC[C@H]1N1CCCC1,inactive: -5.7%
7,CN(C(=O)Cc1ccc(Cl)c(Cl)c1)C1CCCC[C@@H]1N1CCCC1 (some centres undefined),inactive: -0.63%
8,CC1(CBr)Cn2c(nc3ccccc3c2=O)S1 (centres undefined),inactive: -4.16%
9,O=P1(Nc2ccccn2)COc2ccccc2OC1,inactive: -3.27%
10,CCC1=CC2Cc3nc4ccc(Cl)cc4c(N)c3C(C1)C2 (centres undefined),inactive: -6.83%
11,CCOP(=O)(NC(=NC(C)c1ccccc1)NC(C)c1ccccc1)OCC (centres undefined),inactive: -1.72%
12,CN(CCCl)Cc1cc(Cl)c(NC2=NCCN2)c(Cl)c1,inactive: -3.98%
13,CCOP(=O)(Nc1ccc(C)cn1)OCC,inactive: -3.84%
14,O=P1(N(CCCl)CCCl)NCCC(C(F)(F)F)O1 (centres undefined),inactive: 0.91%
15,Clc1n[nH]nc1-c1nn[nH][15n]1,inactive: -3.93%
16,CC(C)(C)C(=O)NC(Sc1ncccn1)C(Cl)(Cl)Cl (centres undefined),inactive: -6.83%
17,Cc1ccc(NCCc2c([N+](=O)[O-])cc([N+](=O)[O-])cc2[N+](=O)[O-])cc1,inactive: 3.57%
18,Nc1cccc2c([As](=O)(O)O)cccc12,inactive: -14.3%
19,CCCOP(=S)(Nc1nc(N)cc(=O)[nH]1)OCCC,inactive: 1.25%
20,COc1cc(C2NCCC3(OCCO3)C2(C)C)cc(OC)c1OC (centres undefined),inactive: -3.85%
21,CCOP(=O)(Nc1cccc2ccccc12)OCC,inactive: -3.03%
22,O=C(OC1CN2CCC1CC2)c1ccc(Cl)cc1 (centres undefined),inactive: -4.73%
23,COc1cc(C(=O)NCC2(N3CCOCC3)CCCCC2)cc(Cl)c1OC(C)C,inactive: -5.56%
24,O=[As](O)(O)c1cccnc1,inactive: -2.71%
25,CS(=O)(=O)c1ccc(Cl)c(NC(=O)COC(=O)C(O)(c2ccccc2)c2ccccc2)c1,inactive: 1.05%

row,SMILES,inhibition
1,O=[As](O)(c1cccc(O)c1)c1cccc(O)c1,inactive: -4.16%
2,Cc1cccc(OCC(=O)OC2CN3CCC2CC3)c1 (centres undefined),inactive: 1.17%
3,NC(=O)Nc1ccc([As](=O)(O)O)cc1,inactive: -2.52%
4,N#CCCN(C(=O)COC(=O)C(O)(c1ccccc1)c1ccccc1)c1ccc(F)cc1,inactive: -0.87%
5,CN(C(=O)Cc1ccccc1)[C@@H]1CC[C@]2(CCCO2)C[C@H]1N1CCCC1,inactive: -5.5%
6,CCOP1(=S)c2c(C)nn(CCC#N)c2N=C(c2ccc(F)cc2)N1C (centres undefined),inactive: 1.35%
7,CN(C)C(=O)c1cc([N+](=O)[O-])cc2c1-c1c(cc([N+](=O)[O-])cc1[N+](=O)[O-])C2=O,inactive: -1.59%
8,O=[N+]([O-])c1ccc2c(c1)nnn2O,inactive: -5.37%
9,CN(C(=O)Cc1ccc(Cl)c(Cl)c1)[C@H]1CC[C@@]2(CCCO2)C[C@@H]1N1CCCC1,inactive: -4.72%
10,CCOP1(=S)c2c(C)nn(CCC#N)c2N=C(c2ccccc2F)N1C (centres undefined),inactive: -1.66%
11,O=P(Nc1nccs1)(Oc1ccccc1)Oc1ccccc1,inactive: -1.29%
12,Nc1ccccc1[As](=O)(O)c1ccccc1,inactive: -4.03%
13,O=C(O)COc1ccc([As](=O)(O)O)cc1[N+](=O)[O-],inactive: -0.04%
14,O=C(OC1CN2CCC1CC2)c1ccccc1 (centres undefined),inactive: -6.43%
15,CCC(=O)N1C2C3N(C(=O)CC)C1C1N(C(=O)CC)C(C(N1C(=O)CC)N3C(=O)CC)N2C(=O)CC,inactive: -0.02%
16,COC(=O)c1cc2c(s1)N=C(c1ccccc1)N(C)P2(=O)N1CCOCC1 (centres undefined),inactive: 0.45%
17,CC(=O)NC(SC(=S)N(CC(C)C)CC(C)C)C(Cl)(Cl)Cl (centres undefined),inactive: -1.53%
18,Cc1ccc(OP(=O)(Nc2ccccn2)Oc2ccc(C)cc2)cc1,inactive: 3.3%
19,Cc1ccccc1OP(=O)(Nc1ccccn1)Oc1ccccc1C,inactive: -8.23%
20,CC(NC(=O)COC(=O)C(O)(c1ccccc1)c1ccccc1)c1ccccc1 (centres undefined),inactive: 0.98%
21,CN(C)C(=O)Oc1noc2ccccc12,inactive: -0.83%
22,O=c1c2cc([N+](=O)[O-])ccc2[nH]c2c([N+](=O)[O-])cc([N+](=O)[O-])cc12,inactive: -2.14%
23,c1ccc(-c2nn[nH]n2)c(-c2nn[nH]n2)c1,inactive: 1.41%
24,Cc1ccc(NP(=O)(Oc2cccc(C)c2)Oc2cccc(C)c2)nc1,inactive: -0.59%
